Here are results for 4 molecules from PMC4980837 (Archiv der Pharmazie, 2013).

Protein sequences, listed by entry. Tags and fused reporters are not part of them.
UniProt Q9HCR9, whole entry, species assumed: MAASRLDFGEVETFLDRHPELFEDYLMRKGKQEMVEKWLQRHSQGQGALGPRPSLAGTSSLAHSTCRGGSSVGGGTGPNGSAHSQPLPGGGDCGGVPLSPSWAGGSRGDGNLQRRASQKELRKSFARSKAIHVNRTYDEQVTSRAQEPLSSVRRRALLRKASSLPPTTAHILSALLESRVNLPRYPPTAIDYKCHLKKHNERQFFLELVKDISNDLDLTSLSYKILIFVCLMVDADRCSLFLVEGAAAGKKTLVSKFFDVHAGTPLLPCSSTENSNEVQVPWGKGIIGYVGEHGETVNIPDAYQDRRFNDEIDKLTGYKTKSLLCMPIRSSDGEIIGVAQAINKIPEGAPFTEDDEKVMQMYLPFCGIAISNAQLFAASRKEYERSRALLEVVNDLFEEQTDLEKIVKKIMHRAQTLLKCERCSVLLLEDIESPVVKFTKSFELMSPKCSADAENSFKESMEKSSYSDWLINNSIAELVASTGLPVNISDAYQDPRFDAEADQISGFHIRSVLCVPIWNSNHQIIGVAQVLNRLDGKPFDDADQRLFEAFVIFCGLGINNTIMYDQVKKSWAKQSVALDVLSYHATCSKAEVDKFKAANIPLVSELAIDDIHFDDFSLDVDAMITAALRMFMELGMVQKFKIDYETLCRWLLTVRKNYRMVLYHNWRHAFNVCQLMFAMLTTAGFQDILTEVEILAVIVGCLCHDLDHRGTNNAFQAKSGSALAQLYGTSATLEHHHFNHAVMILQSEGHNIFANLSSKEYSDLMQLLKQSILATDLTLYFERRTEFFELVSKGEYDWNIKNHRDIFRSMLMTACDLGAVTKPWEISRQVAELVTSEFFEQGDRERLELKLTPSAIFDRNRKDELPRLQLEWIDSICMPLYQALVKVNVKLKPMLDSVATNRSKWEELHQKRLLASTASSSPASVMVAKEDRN

For one assay, the target named is recombinant human PDE5 (Homo sapiens, UniProt O76074). The experiment in a line: PDE5 inhibition, IMAP FP phosphodiesterase assay. The assay is classed as biochemical. The conditions noted are these: for inhibition at 10 µM: read-out: PDE5 % inhibition at 10 μm.
The target of another assay is PDE11A (Homo sapiens, UniProt Q9HCR9). The experiment in a line: PDE selectivity array, PDE11A with cGMP and cAMP as substrates. Particulars: ratio of IC50 PDE11A to PDE5A, cGMP as substrate.

With `CCN1C(=O)[C@H]2Cc3c([nH]c4ccccc34)[C@@H](c3ccc(Br)s3)N2C1=O` [Compound 5, (5S,11aR) 5-(5-Bromo-2-thienyl)-2-ethyl-5,6,11,11a-tetrahydro-1H-imidazo[1′,5 ′:1,6]pyrido[3,4-b]indole-1,3(2H)-dione], at recombinant human PDE5, the IC50 (usually the concentration that inhibits the measured activity by half) was found to be 200 nM and the inhibition (as a rule, the percentage by which the read-out fell short of the control) at 10 µM came to 99%.

For `CCN1C(=O)[C@H]2Cc3c([nH]c4ccccc34)[C@H](c3ccc(Br)s3)N2C1=O` [Compound 6, (5R,11aR) 5-(5-Bromo-2-thienyl)-2-ethyl-5,6,11,11a-tetrahydro-1H-imidazo[1′,5 ′:1,6]pyrido[3,4-b]indole-1,3(2H)-dione], on recombinant human PDE5, the IC50 came to 4800 nM and the inhibition at 10 µM was 66%.

Take `CCN1C(=O)[C@@H]2Cc3c([nH]c4ccccc34)[C@H](c3ccc(Br)s3)N2C1=O` [Compound 7, (5R,11aS) 5-(5-Bromo-2-thienyl)-2-ethyl-5,6,11,11a-tetrahydro-1H-imidazo[1′,5 ′:1,6]pyrido[3,4-b]indole-1,3(2H)-dione]: on recombinant human PDE5, the IC50 stood at 2000 nM and the inhibition at 10 µM was found to be 78%.

In the case of `CCN1C(=O)[C@@H]2Cc3c([nH]c4ccccc34)[C@@H](c3ccc(Br)s3)N2C1=O` [Compound 8, (5S,11aS) 5-(5-Bromo-2-thienyl)-2-ethyl-5,6,11,11a-tetrahydro-1H-imidazo[1′,5 ′:1,6]pyrido[3,4-b]indole-1,3(2H)-dione], the “Selectivity index IC50 (PDE11A/PDE5A) cGMP/cGMP” value on PDE11A amounted to 49.
